Test: Solubility
Format: physicochemical

Solubility in water (deionised water, 25 °C): 3.468 ± 0.007 g dm^−3
Solubility in phosphate buffer pH = 5.4 (pH 5.4, 25 °C): 2.350 ± 0.027 g dm^−3
Solubility in phosphate buffer pH = 7.4 (pH 7.4, 25 °C): 4.998 ± 0.018 g dm^−3
Substance: L-valine isopropyl ester ibuprofenate [[ValOiPr][IBU]]
